Activation data for 64 compounds are collected here from PubChem BioAssay AID588819 (The Scripps Research Institute Molecular Screening Center, 2011).

Sequences of proteins named here, by UniProt entry; tags and fusion partners are left off. A change or cut given only in a name is not applied to a line headed by its entry.
UniProt P11229: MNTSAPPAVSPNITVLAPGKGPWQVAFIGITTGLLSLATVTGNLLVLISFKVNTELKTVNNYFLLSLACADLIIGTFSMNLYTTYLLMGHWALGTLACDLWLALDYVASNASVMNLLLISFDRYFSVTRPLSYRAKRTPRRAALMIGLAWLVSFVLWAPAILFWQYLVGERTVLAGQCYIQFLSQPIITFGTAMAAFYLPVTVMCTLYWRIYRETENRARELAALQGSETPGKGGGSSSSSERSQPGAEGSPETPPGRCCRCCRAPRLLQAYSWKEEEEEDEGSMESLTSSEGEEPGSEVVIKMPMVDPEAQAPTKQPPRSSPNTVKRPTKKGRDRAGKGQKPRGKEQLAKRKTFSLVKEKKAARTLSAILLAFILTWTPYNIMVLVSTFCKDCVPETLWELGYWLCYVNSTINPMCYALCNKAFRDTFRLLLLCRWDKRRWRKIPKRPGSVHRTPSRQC

The list shows a part of the results, in another mix than the full data. Calls of active or inactive are those of the source. No stated cut-off is given here; in the data, active means activation above about 19% (passing the limit was not always enough); inactive means the rest.

The assay deals with Muscarinic acetylcholine receptor M1 (Homo sapiens) (UniProt P11229). Put plainly: CHRM1 PAMs potentiating acetylcholine calcium signal – CHO-K1 cells, Fluo-8 calcium fluorescence, 1536-well, primary screen (AID 588819). The note with it: CHO-K1 hM1, Fluo-8 calcium fluorescence, ACh EC20; at 3 µM; active compounds read high; 0% = ACh EC20, 100% = maximal ACh.
Regarding `O=[N+]([O-])C1C(O)C(O)C([N+](=O)[O-])C(O)C1O` (centres undefined), the activation was inactive: 5.57%.
Consider `Nc1cc(N)c2nonc2c1[N+](=O)[O-]`, for which the activation is inactive: 0.9%.
For `CC(C)CC(=O)NC(Sc1ccc(Cl)cc1)C(Cl)(Cl)Cl` (centres undefined) the value was inactive: -8.67%.
The same measure for `Oc1ccccc1CNc1ccccn1`: inactive: 5.42%; for `O=C(NC(Sc1ccncn1)C(Cl)(Cl)Cl)c1ccccc1` (centres undefined): inactive: 9.85%; for `COc1ccccc1OP(=O)(Nc1ccc(C)cn1)Oc1ccccc1OC`: inactive: -4.32%.
For `CC(C)[C@H]1C(=O)O[C@@H]2CCN3CC=C(COC(=O)[C@](C)(O)[C@]1(C)O)[C@H]23` the value was inactive: -1.21%; for `Cc1ccc(OP(=O)(Nc2nccs2)Oc2ccc(C)cc2)cc1`, inactive: 12.6%.
For `CN1CCCC(OC(=O)C(c2ccccc2)c2ccccc2)C1` (centres undefined), the activation is inactive: -20.1%.
For `Clc1ccc(Cl)c(NC2=NCC(CBr)S2)c1` (centres undefined), the activation was inactive: 11.9%.
For the compound `NC(=O)c1cc([N+](=O)[O-])cc([N+](=O)[O-])c1N`, the activation is inactive: 4.38%.
The same measure for `CN(C(=O)Cc1ccc(Cl)c(Cl)c1)[C@H]1CCCC[C@H]1N1CCCC1`: inactive: -9.51%; for `Cc1ccc(N/C(=N/P(=O)(N2CCOCC2)N2CCOCC2)N2CCOCC2)cc1`: inactive: -4.17%; for `CCN(N=Nc1nonc1N)c1nonc1N`: inactive: 2.99%.
As for `Nc1cccc2ccc([As](=O)(O)O)cc12`, the activation is inactive: 5.41%.
The same measure for `Cc1cc(SC(NC(=O)c2ccc(F)cc2)C(Cl)(Cl)Cl)ncn1` (centres undefined): inactive: 4.29%.
For `CCOP(=O)(Nc1ccccc1)OCC` the value was inactive: 2.21%; for `Cc1ccc(NP(=O)(Oc2ccccc2F)Oc2ccccc2F)nc1`, inactive: -6.51%; for `CN(C(=O)Cc1ccc(Cl)c(Cl)c1)[C@H]1CCCC[C@@H]1N1CCCC1`, inactive: -5.43%.
For `CC(=O)Nc1ccc([As](=O)(O)O)cc1` the value was inactive: 4.16%; for `O=C(O)c1ccccc1[As](=O)(O)O`, inactive: 18.3%; for `CCCC1OP(N)(=O)OCC1CC` (centres undefined), inactive: 1.7%.
Take `CC(=O)O[C@]1(C)C(=O)OC/C2=C/CN(C)CCC(OC(=O)[C@@](O)(C(C)O)C[C@H]1C)C2=O` (some centres undefined): the activation was inactive: 0.52%.
For `O=P(Nc1nc2ccc(Cl)cc2s1)(c1ccccc1)c1ccccc1` the value was inactive: -5.93%.
The same measure for `CN(C)P(=O)(N(C)C)n1c(Nc2ccccc2)nnc1-c1ccccc1`: inactive: 6.64%.
The same measure for `COC(=O)C1(C)COP(=O)(Nc2ccccc2)OC1` (centres undefined): inactive: 3.98%; for `O=[N+]([O-])c1cccc(NC2=NCC(CBr)S2)c1` (centres undefined): inactive: 7.55%.
`O=C(O)CNc1ccc([As](=O)(O)O)cc1`: the activation is inactive: -4.65%.
For `C/C=C1/C[C@@H](C)[C@](O)(CO)C(=O)OCC2=CCN3CC[C@@H](OC1=O)[C@@H]23` the value was inactive: 0.73%; for `CC(C)(C)C(=O)NC(Sc1ccncn1)C(Cl)(Cl)Cl` (centres undefined), inactive: 9.32%.
For `O=[N+]([O-])c1ncn(CCn2ncnc2[N+](=O)[O-])n1` the value was inactive: 4.94%; for `O=C(Nc1cc([As](=O)(O)O)ccc1O)c1ccccc1`, inactive: 7.93%.
For `O=P1(N(CCCl)CCCl)OCCCS1` (centres undefined) the value was inactive: 20.1%.
For the compound `CC(C)c1nc(Nc2ccccc2)n(P(=O)(N(C)C)N(C)C)n1`, the activation was inactive: 4.84%.
For `CC(C)=N/N=C(\N)N[N+](=O)[O-]` the value was inactive: 11.4%; for `CN(C)C(=O)OCCc1n(C)cc[n+]1C`, inactive: 3.88%.
Consider `CC1CCN(C(=O)Oc2c(Cl)cc(Cl)c3cccnc23)CC1`, for which the activation is inactive: -1.93%.
`c1cc(-c2nn[nH]n2)ccc1-c1nn[nH]n1`: the activation is inactive: 11.3%.
As for `Nc1ccc([As](=O)(O)c2ccc(N)cc2)cc1`, the activation is inactive: 16.6%.
Take `C[N+]1=C2C=CC=CC=C2SC12C([N+](=O)[O-])=CC([N+](=O)[O-])=C[C-]2[N+](=O)[O-]` (centres undefined): the activation was inactive: -0.3%.
For `CCN(/C(=N/P(=O)(N1CCOCC1)N1CCOCC1)N1CCOCC1)c1ccc(OC)cc1` the value was inactive: -0.13%; for `O=[N+]([O-])c1cccc2n[nH]nc12`, inactive: 5.69%; for `CC(=O)N1C2C3N(C(C)=O)C1C1N(C(C)=O)C(C(N1C(C)=O)N3C(C)=O)N2C(C)=O`, inactive: 8.6%.
The same measure for `Cc1ccc(NP(=O)(Oc2ccccc2)Oc2ccccc2)nc1`: inactive: -5.09%; for `CCc1nc2c(n1)c1c(non1O)c1c2no[n+]1[O-]`: inactive: -2.94%.
Consider `O=[N+]([O-])c1cc([N+](=O)[O-])c(CCNc2ccccc2)c([N+](=O)[O-])c1`, for which the activation was inactive: 0.6%.
The same measure for `COc1ccc(C2=NCC(CBr)S2)cc1` (centres undefined): inactive: 7.13%; for `COc1ccc(C[C@H](C)NC[C@@H](O)c2ccc(O)c(NC=O)c2)cc1`: inactive: 2.82%.
For `c1nnnn1CCn1cnnn1` the value was inactive: 13.5%.
The same measure for `CC(C)C(=O)NC(Sc1ccccc1)C(Cl)(Cl)Cl` (centres undefined): inactive: 0.42%.
In the case of `O=P(Nc1nccs1)(c1ccccc1)c1ccccc1`, the activation was inactive: 7.79%.
The same measure for `C(Cc1nn[nH]n1)Cc1nn[nH]n1`: inactive: 5.38%.
The same measure for `Nc1ccc([As](=O)(O)c2ccc([N+](=O)[O-])cc2)cc1`: inactive: 5.1%; for `O=C(OC1CN2CCC1CC2)c1cccc(Cl)c1` (centres undefined): inactive: -21.8%; for `O=[N+]([O-])c1ccc(O)c(/C=N/Nc2ccc([N+](=O)[O-])cc2[N+](=O)[O-])c1`: inactive: 8.43%.
For `O=[N+]([O-])c1ncn(CCn2cnc([N+](=O)[O-])n2)n1` the value was inactive: 10.3%; for `CC(=O)NC(SC(=S)N(C)C)C(Cl)(Cl)Cl` (centres undefined), inactive: 8.43%.
`O=[As](O)(c1ccccc1)c1ccc(O)cc1`: the activation was inactive: 0.16%.
For `COc1ccc(CC2NCC(O)C2OC(C)=O)cc1` (centres undefined) the value was inactive: 9.62%; for `O=P(Nc1nc2ccccc2s1)(c1ccccc1)c1ccccc1`, inactive: -2.78%.
The same measure for `C[C@H]1OP(=O)(Oc2ccccc2)[C@H](O)[C@H](O)[C@H]1N=[N+]=[N-]` (some centres undefined): inactive: 3.77%.
The same measure for `COc1ccc(N)c([N+](=O)[O-])c1[N+](=O)[O-]`: inactive: 2.38%.
On to `Nc1ccc(CCCCOc2ccccc2)cc1`, for which the activation was inactive: 10%.
The same measure for `O=P(Nc1ccccn1)(c1ccc(Br)cc1)c1ccc(Br)cc1`: inactive: 1.37%.
